Only a part of the results on these compounds is given; other tests are left out.
Test system: BHK cells
Assay: cobinamide uptake into mammalian cells
Settings: 100 nM to 100 μM, 5 min, 37° C.
Description: Measurement of Cobinamide Uptake into Mammalian Cells. To study cobinamide uptake into mammalian cells, cobinamide was radioactively labeled with [^14C] by adding two molar equivalents of [^14C]-KCN (54 mCi/mmol, Moravek Biochemicals) to form [^14C]-dicyanocobinamide ([^57Co]-cobalamin is no longer commercially available). The binding affinity of cyanide for cobinamide is extremely high (K overall −10^22 M^−1) (Pratt, J. M. (1972) Inorganic chemistry of vitamin B12, Academic Press, London-New York), but to be sure no [^14C]-KCN remained, the pH was lowered to 6 to form HCN (pKa of KCN is 9.2), and then bubbled argon through the solution to remove any [^14C]-HCN. The specific activity of the [^14C]-dicyanocobinamide product was 104 mCi/mmol (using a molar extinction coefficient of 2.8×10^4 at 348 nm) (Ford et al., J. Inorg. Biochem. 41: 235-244, 1991).
In the uptake studies, approximately 1×10^6 baby hamster kidney (BHK) cells cultured in Dulbecco's Modified Eagles' (DME) medium containing 10% fetal bovine serum (FBS) were grown to sub-confluence in six well cluster dishes. The cells were incubated at 37° C. for 5 min with [^14C]-dicyanocobinamide at concentrations ranging from 100 nM to 100 μM. […] The cell pellet was dissolved in 500 μl of 0.1 N NaOH, and radioactivity in sample aliquots was measured by liquid scintillation counting. […]

dicyanocobinamide
radioactivity in BHK cells (uptake): progressive curve-linear increase in radioactivity

From patent US8431561B2 (priority 2004, dated 2013)
